The values that follow come from PubChem BioAssay AID623 (Vanderbilt High Throughput Screening Facility, 2007).

Protein sequences, listed by entry. Tags and fused reporters are not part of them.
UniProt P62483, whole entry: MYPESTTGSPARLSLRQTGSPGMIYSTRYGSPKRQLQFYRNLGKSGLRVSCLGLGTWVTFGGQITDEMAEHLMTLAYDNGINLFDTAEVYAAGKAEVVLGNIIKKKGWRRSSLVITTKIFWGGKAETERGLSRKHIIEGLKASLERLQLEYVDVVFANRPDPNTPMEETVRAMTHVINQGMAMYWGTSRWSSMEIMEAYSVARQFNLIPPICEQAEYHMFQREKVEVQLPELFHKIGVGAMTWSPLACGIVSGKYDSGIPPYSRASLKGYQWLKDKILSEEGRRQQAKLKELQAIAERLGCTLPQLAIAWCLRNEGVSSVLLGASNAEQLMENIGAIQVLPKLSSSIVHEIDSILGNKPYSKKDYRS

The list shows a part of the results, in another mix than the full data. Activity calls are given as the source filed them.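 The calls were made as follows: active = NADPH fluorescence slope more negative than the mean of all samples by about 3 SD, 99.7% confidence; inactive = the rest.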

This assay addresses Voltage-gated potassium channel subunit beta-2 (Rattus norvegicus) (UniProt P62483). Description: KvBeta positive modulators, primary screen, biochemical, NADPH fluorescence (AID 623).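 Also: fluorescence intensity change per second fitted from 20 to 320 s.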 Conditions: Recombinant KvBeta, NADPH fluorescence decrease slope, 10 min; at 10 µM; stronger effect = lower value.
Turning to `Fc1ccccc1NC1CCN(Cc2ccccc2)CC1`, the NADPH fluorescence slope was inactive: -4.7e-05.
